Experimental data as given in patent publication EP4733303A1, “MUSCARINIC M4 RECEPTOR AGONIST AND USE THEREOF” (Haisco Pharmaceutical Group Co., Ltd., priority 2023, dated 2024).

Amino acid sequences for entries named in this document (tags omitted).
UniProt P08173, whole entry: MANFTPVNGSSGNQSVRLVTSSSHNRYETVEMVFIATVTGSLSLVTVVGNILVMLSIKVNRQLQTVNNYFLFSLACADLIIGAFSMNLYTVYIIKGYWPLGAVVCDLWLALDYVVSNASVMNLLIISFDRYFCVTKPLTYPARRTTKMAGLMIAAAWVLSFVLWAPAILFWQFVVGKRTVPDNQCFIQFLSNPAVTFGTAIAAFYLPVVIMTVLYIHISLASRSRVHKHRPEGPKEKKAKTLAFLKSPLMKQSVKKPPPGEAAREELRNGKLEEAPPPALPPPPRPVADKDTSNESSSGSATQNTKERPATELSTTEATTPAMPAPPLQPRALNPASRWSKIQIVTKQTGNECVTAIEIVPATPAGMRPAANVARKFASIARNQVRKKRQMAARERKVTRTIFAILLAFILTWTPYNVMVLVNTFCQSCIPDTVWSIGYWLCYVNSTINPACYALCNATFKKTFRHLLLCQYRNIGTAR

Target: M4 receptor (Homo sapiens, UniProt P08173)
Assay: PAM agonistic activity of compound on M4 receptor (FLIPR Calcium 6 assay in M4-CHO cells)
Conditions: with acetylcholine (Ach), final concentration 3 nM
Description: • 1). Cell plating: M4-CHO cells were digested, collected, and resuspended. After cell counting, the cell suspension was seeded into a 384-well cell plate at a density of: 1.2 × 10^4 cells/25 µL/well. The cell plate was then cultured in a 37°C, 5% CO2 incubator for about 16-20 h. • 2). Day 2: Assay Buffer was prepared according to the instructions of the FLIPR Calcium 6 Assay Kit. Component A (20×) was thawed to room temperature and diluted with the Assay Buffer to prepare a loading buffer (1×), which was stored at room temperature until use. • 3). The culture medium was removed from the cell plate. 40 µL of the loading buffer (1×) was quickly added to each well. The cell plate was then centrifuged and incubated at 37°C in the dark for 120 min. • 4). Working solutions of the positive control compound and the test compounds were prepared. An acetylcholine (Ach) agonist compound solution was prepared (final concentration: 3 nM). The PAM compound and the Ach agonist solution were mixed at a 1 : 1 ratio, and the mixture was transferred into a 384-well compound source plate at 20 µL per well. • 5). The cell plate, the compound source plate, and the pipette tips were placed into the corresponding positions within the FLIPR instrument. 10 µL of the diluted compound from step 4 was added into each experimental well using the FLIPR Tetra. Data was collected at the wavelength of 515 nm-575 nm. • 6). The signal values were plotted against the compound concentrations. Nonlinear regression analysis was performed using GraphPad Prism software for curve fitting and EC50 calculation.
The experimental results are shown in Table 1, where A represents EC50 < […]; B represents 100 nM ≤ EC50 < 500 nM, and C represents 500 nM ≤ EC50. Table 1. Agonistic activity of compounds on M4 receptor

EC50 (tested form: free base) [nM]	EC50 [nM]	SMILES
< 100	–	Cc1cc(C)c2c(n1)CN(C(=O)CC1CN(c3ccnc(-n4cc5c(n4)CCC5)c3)C1)C2
< 100	–	Cc1cc(C2CCOC2)nc2c1CN(C(=O)CC1CN(c3ccnc(OC4CC(F)(F)C4)c3)C1)C2 (centres unmarked)
–	< 100	Cc1c2c(nc3c1CN(C(=O)CC1CN(c4ccnc(C(F)(F)F)c4)C1)C3)CCC2
–	< 100	Cc1cc(C)c2c(n1)CN(C(=O)CC1CN(c3cc(-n4ccc(C)n4)ncc3F)C1)C2
< 100	–	Cc1cc(-c2cnn(C)c2)nc2c1CN(C(=O)CC1CN(c3ccnc(OC4CC(F)C4)c3)C1)C2 (centres unmarked)
